{"source": "patent US11166981B2", "about": "“Methods and compositions for treating chlorine-gas induced lung injury” (dated 2021)", "key": {"[1]": {"tested_on": "global cerebral ischemia/reperfusion", "conditions": "mouse; cited from earlier work"}, "[2]": {"conditions": "cited from earlier work"}, "[3]": {"tested_on": "human glial neuroinflammation", "conditions": "LPS-mediated, in vitro; cited from earlier work"}, "[4]": {"tested_on": "volume overload heart failure", "conditions": "mouse; cited from earlier work"}, "[5]": {"tested_on": "heart ischemia/reperfusion injury", "conditions": "rat; cited from earlier work"}, "[6]": {"tested_on": "Human bronchial epithelial cell line (16HBE)", "assay": "HOCl-induced injury of human bronchial epithelial cells, LDH release"}, "kidney injury": {"tested_on": "kidney injury", "conditions": "rat; cited from earlier work"}, "cyanide toxicity": {"tested_on": "cyanide toxicity", "conditions": "animal models of cyanide toxicity, cited from earlier work"}, "acute lung injury": {"tested_on": "acute lung injury", "conditions": "0.5-2 g/kg, ip or iv, even when given post insult; cited from earlier work"}, "[7]": {"tested_on": "coronary artery calcification", "conditions": "hemodialysis subjects; cited from earlier work"}, "[8]": {"tested_on": "cisplatin-induced ototoxicity", "conditions": "guinea pig, even when given post insult; cited from earlier work"}, "[9]": {"conditions": "in vivo; cited from earlier work"}, "biliary obstruction": {"tested_on": "biliary obstruction", "conditions": "rat biliary obstruction; cited from earlier work"}, "[10]": {"tested_on": "paraquat model of acute lung injury", "conditions": "1 g/kg, sc; cited from earlier work"}, "[11]": {"conditions": "cited from earlier work", "remark": "listed apart in the source"}, "chlorine gas exposure": {"tested_on": "chlorine gas exposure", "conditions": "cited from earlier work"}}, "data": [{"smiles": "O=S(O)(O)=S", "values": [{"measurement": "effect in global cerebral ischemia/reperfusion", "setting": "[1]", "value": "neuroprotective"}, {"measurement": "basal serum levels", "setting": "[2]; endogenous, humans", "value": "5.5 ± 1.8", "unit": "µM"}, {"measurement": "serum half-life", "setting": "[2]; human, high i.v. dose", "value": "around 3 hours"}, {"measurement": "effect on glial neuroinflammation", "setting": "[3]", "value": "attenuate LPS-mediated human glial neuroinflammation"}, {"measurement": "effect in volume overload heart failure", "setting": "[4]", "value": "cardioprotective"}, {"measurement": "effect in heart ischemia/reperfusion injury", "setting": "[5]", "value": "protective"}, {"measurement": "protection of HBE cells against HOCl-induced injury", "setting": "[6]; 200 μM HOCl 30 minutes, increasing concentrations, LDH release at 24 hours (FIG. 3)", "value": "dose-dependent thiosulfate protection"}, {"measurement": "concentration of sodium thiosulfate giving improved survival against HOCl-mediated injury", "setting": "[6]; 16HBE, 200 μM HOCl in PBS 30 minutes, then thiosulfate in DMEM+10% FCS, LDH release 24 hours after", "value": "> 10", "unit": "µM"}, {"measurement": "effect in kidney injury models", "setting": "kidney injury", "value": "protective"}, {"measurement": "improvements in survival", "setting": "cyanide toxicity; doses 150-1000 mg/kg", "value": "5-70%"}, {"measurement": "effective doses", "setting": "cyanide toxicity", "value": "150 to 1000", "unit": "mg/kg"}, {"measurement": "effect on lung inflammation and injury", "setting": "acute lung injury", "value": "decreased lung inflammation and injury"}, {"measurement": "effect on progression of coronary artery calcification", "setting": "[7]", "value": "delayed the progression"}, {"measurement": "effect on cisplatin-induced ototoxicity", "setting": "[8]", "value": "protective"}, {"measurement": "adverse effects reported", "setting": "[9]", "value": "hypotension, nausea and vomiting"}, {"measurement": "effect on liver mitochondrial function", "setting": "biliary obstruction", "value": "improved liver mitochondrial function"}, {"measurement": "effect on survival", "setting": "biliary obstruction", "value": "improved survival"}, {"measurement": "effect on survival", "setting": "[10]", "value": "improved mouse survival"}, {"measurement": "reported LD50", "setting": "[11]; in animals", "value": "3000 to 4000", "unit": "mg/kg"}, {"measurement": "reported LD50 dose", "setting": "[11]; iv route", "value": 4000, "unit": "mg/kg"}]}, {"smiles": "O=NO", "values": [{"measurement": "effect on mortality to chlorine gas exposure", "setting": "chlorine gas exposure; mouse model", "value": "effective in decreasing mortality"}, {"measurement": "effect on 24-hour survival", "setting": "chlorine gas exposure; single bolus im dose, as late as 60 minutes post exposure", "value": "improve 24-hour survival"}]}]}
